Test results reported in ChEMBL document CHEMBL1142690, “Synthesis of NO-donor bisphosphonates and their in-vitro action on bone resorption” (J Med Chem, 2005).

Tests used:
[1] = Uptake ratio in bone to that of muscle at 2 hours; details: rat, Muscle tissue
[2] = Uptake ratio in bone to that of blood at 2 hours; details: rat
[3] = Uptake ratio in bone to that of muscle at 4 hours; details: rat, Muscle tissue
[4] = Uptake ratio in bone to that of blood at 4 hours; details: rat

Question: What does the source list for `O=[N+]([O-])OCC(CCCC(P(=O)(O)O)P(=O)(O)O)O[N+](=O)[O-]` (stereo not drawn)?
Answer: Biodistribution [1]: 59; Biodistribution [2]: 10.2; Biodistribution [3]: 154; Biodistribution [4]: 21.2

Question: For `O=[N+]([O-])OCC(CCCC(O)(P(=O)(O)O)P(=O)(O)O)O[N+](=O)[O-]` (stereo not drawn), which Biodistribution [1] is on record?
Answer: Its Biodistribution is 66.8.

Question: And the Biodistribution [2]?
Answer: Its Biodistribution is 15.2.

Question: What about the Biodistribution [3] of the same compound?
Answer: The Biodistribution was 272.

Question: What about the Biodistribution [4] of the same compound?
Answer: Its Biodistribution is 54.4.
